Target: Bcl-xL/Bak complex (Homo sapiens, UniProt Q07817)
Assay: Fluorescence polarization competition assay (displacement of fluorescein-labeled Bak peptide from Bcl-xL)
Assay type: binding
Details: for K1 ± S.D.: 15 nM Fl-Bak, 184 nM Bcl-xL, 10 mM PBS pH 7.4, 25° C., mean of three independent experiments; for affinity / activity in disrupting the Bcl-xL/Bak interaction (in words): summary of Table 1

Protein sequences, listed by entry. Tags and fused reporters are not part of them.
UniProt Q07817, whole entry: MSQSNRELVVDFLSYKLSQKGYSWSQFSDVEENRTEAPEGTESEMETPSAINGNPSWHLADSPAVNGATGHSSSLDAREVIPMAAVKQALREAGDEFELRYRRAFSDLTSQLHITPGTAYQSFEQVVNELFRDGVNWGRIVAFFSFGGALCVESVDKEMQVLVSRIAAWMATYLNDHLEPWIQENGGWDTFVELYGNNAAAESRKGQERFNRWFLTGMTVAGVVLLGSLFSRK

| Compound | K1 ± S.D. | affinity / activity in disrupting the Bcl-xL/Bak interaction (in words) |
| --- | --- | --- |
| CC(C)C[C@H](NC(=O)c1ccc(C(=O)N[C@@H](CC(C)C)C(=O)O)c(Oc2ccccc2)c1)C(=O)O | No affinity |  |
| COC(=O)[C@H](CC(C)C)NC(=O)c1ccc(C(=O)N(C(C)C)C(C)C)cc1Oc1ccccc1 | Not soluble |  |
| COC(=O)CNC(=O)c1ccc(C(=O)N(C)C)cc1 | No affinity | weak binding |
| COC(=O)[C@H](CC(C)C)NC(=O)c1ccc(C(=O)N(C)C)cc1OC(C)C |  | low micro-molar Ki values |
